# Antibody variant affinities, Ab-14 heavy chain, assay B

Binding partner: SARS-CoV-2 spike HR2 peptide, sequence PDVDLGDISGINAS.

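Phage display of a naive human antibody library on the peptide gave the parent. Designed CDR sequences, proposed from the first random library and measured here. Several design methods are mixed in this list. The assay is AlphaSeq: two haploid yeast populations carry antibody and antigen on their surface. Mating (16 h, 30 °C) was followed by selection of diploids and sequencing of their barcodes. Scores were corrected for input abundance and mapped to Kd with protein pairs of known affinity run in the same pool. Each pool was mated in six replicate cultures.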

Each scFv is VH, three GGGGS repeats, VL, as in the parent Ab-14, and differs from it in the CDRs of the heavy chain only.
VH: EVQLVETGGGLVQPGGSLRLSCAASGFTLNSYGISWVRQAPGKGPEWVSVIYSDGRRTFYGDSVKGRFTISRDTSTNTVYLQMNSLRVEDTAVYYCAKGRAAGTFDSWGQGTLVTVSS
VL: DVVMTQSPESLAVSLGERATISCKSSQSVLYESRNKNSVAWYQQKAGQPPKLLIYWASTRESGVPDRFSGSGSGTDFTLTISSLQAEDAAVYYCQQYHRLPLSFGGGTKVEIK

Each variant is given by its three heavy chain CDRs, as the data file delimits them; those of the parent are GFTLNSYGIS, VIYSDGRRTFYGDSVK, GRAAGTFDS. Numbers give log10(Kd / nM), so 0 is 1 nM and 3 is 1 µM. Smaller is tighter. Replicates are averaged; those with no signal do not enter the mean. Where no diploid with the target was found in any replicate, the entry reads "not detected": below detection, most likely a poor binder, though not proof of it. Entries are sorted by rising average, undetected variants last. Empty control strains, which show no peptide, gave a signal in 1% of pairings with all heavy chain designs; the median was 2.08 and 95% of these signals were weaker than 0.84. No background was subtracted. Of ten entries with the parent sequence, four were seen in most replicates (averages 0.34 to 2.37), three in one and three in none, so single entries are noisy. The authors' rule: three or more of the six replicates give a measured affinity, fewer mean a poor binder. A sequence measured in both rounds can read differently, since the two assays cover different ranges.

| # | CDR-H1 | CDR-H2 | CDR-H3 | mean, log10 nM | replicates with signal |
|---|---|---|---|---|---|
| 1 | GFDLNEYGIS | VIYADGRRTFYADSVK | GQTAGTFTL | -0.77 | 6/6 |
| 2 | GFDLNEYGIS | VIYADGVRTAYADKVK | GQVAGTFDV | -0.47 | 6/6 |
| 3 | GFNLNEYGIS | VIYADGRRTFYADSVK | GEAAGTFDV | -0.38 | 6/6 |
| 4 | GFSLDEYGIS | VIYADGMRTAYSDSVK | GNVAGTFDL | -0.17 | 6/6 |
| 5 | GFDLNEYGIS | VIYADGMRTAYADNVK | GNNAGTFDQ | -0.16 | 1/6 |
| 6 | GFDLDEYGIS | VIYADGKRTFYQDSVK | GQAAGTFDQ | -0.10 | 6/6 |
| 7 | GFDLNEYGIS | VIYADGRRTFYQDSVK | GNVAGTFDL | -0.09 | 6/6 |
| 8 | GFDLDEYGIS | VIYADGMRTAYTDSVK | GNNAGTFDL | -0.03 | 6/6 |
| 9 | GFTLNEYGIS | VIYSDGRRTFYSDSVK | GFAAGTFDS | 0.26 | 6/6 |
| 10 | GFSLNSYGIS | VIYSDGKRTFYGDSVK | GQAAGTFDS | 0.34 | 6/6 |
| 11 | GFDINEYGIS | VIYADGQRTFYADSVK | GNQGGTFDL | 0.34 | 6/6 |
| 12 | GFTLNSYGIS | VIYSDGKRTFYSDDVK | GQAAGTFDT | 0.54 | 6/6 |
| 13 | GFTPNEYGIQ | VIYSDGERTFFGDSVK | GRAAGTFDS | 0.60 | 1/6 |
| 14 | GFELNEYGIS | VIYSDGRRTQYIDSVK | GRAAGTFDS | 0.74 | 6/6 |
| 15 | PFDLNSYGIS | VIYSDGRRTFYGDSVK | GKTAGTFDS | 0.81 | 6/6 |
| 16 | GYTLNSYGIS | VIYSDGRRTAYGDSVK | GRAAGTFDS | 0.82 | 2/6 |
| 17 | GFDLNSYGIS | VIYSDGRRTFYSDSVK | GRAPGTFDS | 0.92 | 5/6 |
| 18 | GFFLNSYGIS | VIYSDGRRTFYGDSVK | GQEAGTFDT | 0.95 | 1/6 |
| 19 | GFSLNYYGIS | VIYSDGRRTFYSDSVK | GKTAGTFDS | 1.07 | 6/6 |
| 20 | GFELNSYGIS | VIYSDGRRTFYSDSVK | GKEAGTFDS | 1.22 | 1/6 |
| 21 | GFDLTEYGIS | VIYADGRRTQYQDAVK | GLNGGIIVV | 1.36 | 6/6 |
| 22 | GETLNDYGIS | VIYSDGRRTFYIDSVK | GRAAGTFDS | 1.39 | 4/6 |
| 23 | AFTLTSYGIS | VIYSDGRRTFYDDSVK | GRAAGTFDS | 1.61 | 3/6 |

The remaining entries, values ahead:

| # | mean, log10 nM | replicates with signal | CDR-H1 | CDR-H2 | CDR-H3 |
|---|---|---|---|---|---|
| 24 | 1.65 | 1/6 | GFSLNSYGIS | VIYSDGRRTFYADSVK | GQAAGTFDS |
| 25 | 1.81 | 2/6 | GFSINEYGIS | VIYADGRRTFYGNAVK | GKAAVTFDQ |
| 26 | 1.83 | 2/6 | GFTLNSYGIS | VIYSDGRRTWYGDSVK | GRAACTFDS |
| 27 | 2.29 | 1/6 | GFTLNSYGIS | VIYSDGRKTFYADAVK | GRCAGTFDS |
| 28 | 2.74 | 1/6 | GITLNSYGIS | VIYSDGRRTFYGDSVE | GRAAGTFDS |
| 29 | not detected | 0/6 | GFSLNEYGIS | VIYADGTRMAYTNSVK | GLMGFVLGM |
| 30 | not detected | 0/6 | GFELNSYGIS | VIYSDGRRTFYGDMVK | GQTAGTFDS |
| 31 | not detected | 0/6 | GFALNEYGIS | VIYADGSRKAYINSVK | GVNNIDVNV |
| 32 | not detected | 0/6 | GFWLDSYGIS | VIYSDGRRTFYGDSVK | GWVADTFDS |
| 33 | not detected | 0/6 | GFTLMSYGIS | VIYSDGRRTFYGDSVK | GRAAGTFDS |
| 34 | not detected | 0/6 | GFTYDSYGIS | VIYSDGRRTFYGDSVK | GRGPGTALS |
| 35 | not detected | 0/6 | GFTLNSYGIS | VIYSDGRRTFYSDSVK | GKAAGTFDR |
| 36 | not detected | 0/6 | GFTLRDYGIS | VIYSDGRRTQYIDSVK | GRAAGTFDS |
| 37 | not detected | 0/6 | GESLEEYGIS | VIYADGMREQYSDSVK | GRQGGFFVV |
| 38 | not detected | 0/6 | GFTENDYGIS | VIYFDGRRTFYGDSVK | GRAAGTFDS |
| 39 | not detected | 0/6 | GFTLNSYGIS | VIYSDGRRTFYIDSVR | GRAAGEFNS |
| 40 | not detected | 0/6 | GETLEEYGIS | VIYSDGLRTFYIDSVK | GREAGTFDS |
| 41 | not detected | 0/6 | GFDLQEYGIS | VIYADGLREAYSDKVK | GQLMGYFSV |
| 42 | not detected | 0/6 | GFSLNDYGIS | VIYSDGRRTFYGDTVK | GRTAGTFDE |
| 43 | not detected | 0/6 | GFTLNSYGIS | VIYSDGRRTFYQDSVK | GKAAGHFDL |
| 44 | not detected | 0/6 | GFDIQEYGIS | VIYADGQRVAYTNSFK | GTQSGNNIN |
| 45 | not detected | 0/6 | GFYLNDYGIS | VIYSDGRRTMYGDSVK | GRAAGTFDS |
| 46 | not detected | 0/6 | GFDLAEYGVS | VIYADGKRTAYADHVK | GENGGFFDL |

The closing 7 entries, repeated:

{"CDR-H1": "GETLEEYGIS", "CDR-H2": "VIYSDGLRTFYIDSVK", "CDR-H3": "GREAGTFDS", "mean, log10 nM": "not detected", "replicates with signal": "0/6"}
{"CDR-H1": "GFDLQEYGIS", "CDR-H2": "VIYADGLREAYSDKVK", "CDR-H3": "GQLMGYFSV", "mean, log10 nM": "not detected", "replicates with signal": "0/6"}
{"CDR-H1": "GFSLNDYGIS", "CDR-H2": "VIYSDGRRTFYGDTVK", "CDR-H3": "GRTAGTFDE", "mean, log10 nM": "not detected", "replicates with signal": "0/6"}
{"CDR-H1": "GFTLNSYGIS", "CDR-H2": "VIYSDGRRTFYQDSVK", "CDR-H3": "GKAAGHFDL", "mean, log10 nM": "not detected", "replicates with signal": "0/6"}
{"CDR-H1": "GFDIQEYGIS", "CDR-H2": "VIYADGQRVAYTNSFK", "CDR-H3": "GTQSGNNIN", "mean, log10 nM": "not detected", "replicates with signal": "0/6"}
{"CDR-H1": "GFYLNDYGIS", "CDR-H2": "VIYSDGRRTMYGDSVK", "CDR-H3": "GRAAGTFDS", "mean, log10 nM": "not detected", "replicates with signal": "0/6"}
{"CDR-H1": "GFDLAEYGVS", "CDR-H2": "VIYADGKRTAYADHVK", "CDR-H3": "GENGGFFDL", "mean, log10 nM": "not detected", "replicates with signal": "0/6"}

Reference: Li et al. 2023, doi:10.1038/s41467-023-39022-2. File: FLAb, binding data.